Values of other authors in patent US20100320428A1, “GASEOUS DIELECTRICS WITH LOW GLOBAL WARMING POTENTIALS” (priority 2006, published 2010).

Conditions: boiling point; Table 2, preferred dielectric compounds; cited from earlier work

Substance: Phosphorus chloride difluoride
- MY BP: −47.3 °C
